Measurements reported in PubChem BioAssay AID602481 (Broad Institute, 2012).
Only a part is listed here, and it is no random draw. Activity calls are given as the source filed them. Cut-off read from the data, not from the text of the source: active = inhibition above about 40%; inconclusive = no clear call, values can overlap the other calls; inactive = below that.

System: 7,8-diaminopelargonic acid synthase BioA (Mycobacterium tuberculosis)
Assay: M. tuberculosis BioA enzyme inhibitors, primary screen, biochemical, plate reader, single point, HTS (AID 602481)
Settings: purified M. tuberculosis BioA enzyme, at 9.99 µM, stronger effect = higher value

Compound	inhibition
CCC(=O)N(c1ccccc1)C1(COC)CCN(CCn2nnn(CC)c2=O)CC1	inactive: -0.0885%
CCC(=O)N(c1ccccc1)C1(COC)CCN(CCc2cccs2)CC1	inactive: -0.372%
